# Source: patent US9102636B2, “Analgesic compounds, compositions, and uses thereof” (Galleon Pharmaceuticals, Inc., priority 2010, dated 2015)
# How the values were obtained:
# [1] = system: Fentanyl induced toxicity (Survival); experiment: Fentanyl induced toxicity (Survival); conditions: for Survival (%): Compound 2 25 mg/kg i.v. preemptive
# [2] = system: established opioid-induced tolerance/hyperalgesia; experiment: Effect on existing opioid tolerance/hyperalgesia; conditions: rat; fentanyl for two days, single IV dose on day 3; FIG. 7
# [3] = system: Fentanyl induced toxicity (Hargreaves); experiment: Fentanyl induced toxicity (Hargreaves): paw withdrawal latency
smiles,measurement,setting,value
"CC1(C)SC(Nc2ccccc2O)=N[C@@H]1C(=O)O [Compound 2, (R)-2-(2-hydroxyphenylamino)-thiazoline-5,5-dimethyl-4-carboxylic acid]",Survival (%),"[1]; 0 h, fentanyl 25 μg/kg i.v. hourly for 6 h, n = 6",100%
same,Survival (%),"[1]; 1 h, fentanyl 25 μg/kg i.v. hourly",100%
same,Survival (%),"[1]; 2 h, fentanyl 25 μg/kg i.v. hourly",100%
same,Survival (%),"[1]; 3 h, fentanyl 25 μg/kg i.v. hourly",83.33%
same,Survival (%),"[1]; 4 h, fentanyl 25 μg/kg i.v. hourly",83.33%
same,Survival (%),"[1]; 5 h, fentanyl 25 μg/kg i.v. hourly",83.33%
same,Survival (%),"[1]; 6 h, fentanyl 25 μg/kg i.v. hourly",83.33%
same,animals died,"[1]; rat, single 25 mg/kg i.v. preemptively, fentanyl 25 μg/kg hourly for 6 h, vehicle 5/6",1/6
same,effect on established opioid-induced tolerance/hyperalgesia,[2],attenuates established opioid-induced tolerance/hyperalgesia
same,Paw withdrawal latency,"[3]; time 15 (min after first fentanyl), Cpd 2 25 mg/kg i.v. preemptive, fentanyl 25 μg/kg i.v. hourly, individual rats, cut-off 40 seconds",40
same,Paw withdrawal latency,"[3]; time 75, as E24",40
same,Paw withdrawal latency,"[3]; time 135, as E24",40
same,Paw withdrawal latency,"[3]; time 195, as E24",40
same,Paw withdrawal latency,"[3]; time 255, as E24",40
same,Paw withdrawal latency,"[3]; time 315, as E24",40
